US20100029544A1, “Composition” (priority 2006, published 2010)

Experimental: Drug loading was carried out as described above. To determine the concentration of encapsulated drug, the solutions were filtered (0.45 μm) and the filtrates were dissolved in methanol and subsequently analysed using an ultraviolet-visible spectrophotometer at the wavelength of 272 nm. A propofol calibration graph was prepared using various standard solutions (0.012-0.16 mgml^−1, R^2=0.998). The filtered formulations were sized using photon correlation spectroscopy and imaged by scanning electron microscopy (SEM).

augmentation of propofol solubility: 24 fold
propofol encapsulated / solubilised: 2.82 mgml^−1
Substance: Quaternary Ammonium Cholesteryl Carbamate PAA [QCPAA]
